This is an account of results in patent US9518085B2, “Compounds and pharmaceutical combinations for the treatment of neurodegenerative and ischemic brain diseases” (CENTRO DE INGENIERÍA GENÉTICA Y BIOTECHNOLOGÍA, priority 2011, dated 2016).

The subject of test [1] is brain I/R model in Mongolian gerbils. Nature of the test: Brain infarct volume in the bilateral ischemia-reperfusion (I/R) model, transient CCA occlusion. Particulars: 24 h after 10 min CCA occlusion, PCB 750 μg/Kg ip, PCB-aa 3.375 mg/kg, alone or combined. In kind it is in vivo. As for the experimental part: The animals were treated with saline solution or with an accumulative dose of the PCB-aa peptides (3.375 mg/kg of each one), by intraperitoneal route for 30 min, 3, 6 and 12 h after the ischemic event.
The effectiveness percentage of each treatment was calculated according to the following formula: effectiveness %=(1−Vi/VI/R)×100. Vi: infarct volume of the ischemic group treated with the corresponding product; VI/R: volume of the infarct of the ischemic group treated with saline solution.
The percentage of effectiveness was calculated as described in Example 3.
The evaluation of the therapeutic effect of the combinations and their independent components was carried out. The percentage of effectiveness of each treatment was calculated as described in Example 3.

For test [2], the system named is EAE model. Nature of the test: EAE model, therapeutic schedule, clinical course (area under the curve). The class given is in vivo, C57BL6 mice. The note with it: PCB 750 μg/kg ip, PCB-aa 3.375 mg/kg ip daily 15 days, IFN-b 500 ng/Kg sc 6 doses, alone or combined. As for the experimental part: The percentage of effectiveness of each treatment was calculated according to the following formula: % of effectiveness=(1−ACi/ACEAE)×100. ACi: area under the curve of the group treated with the corresponding product; ACEAE: area under the curve of the EAE group.
(§1) In the prophylactic schedule the treatment was performed 15 days before EAE induction and in the therapeutic schedule starting from the beginning of the clinical signs.

For test [3], the system named is experimental autoinmune encephalomyelitis (EAE) model. Nature of the test: EAE model, prophylactic schedule, clinical index. The class given is in vivo, C57BL6 mice. Particulars: Table 2; PCB-aa 3.375 mg/Kg, PCB 750 μg/Kg, IFN-b 500 ng/Kg, alone or combined. The method, then: as §1

As to IL-2: Interleukin-2, the “effectiveness, reduction of brain infarct volume” value in test [1] (IL-2 100 ng/Kg sc) is given as 25.8%.

B1: IFN-b: beta interferon, type I interferon (protein, UniProt P01574 22-187, looked up)
Interferon beta: MSYNLLGFLQRSSNFQCQKLLWQLNGRLEYCLKDRMNFDIPEEIKQLQQFQKEDAALTIYEMLQNIFAIFRQDSSSTGWNETIVENLLANVYHQINHLKTVLEEKLEKEDFTRGKLMSSLHLKRYYGRILHYLKAKEYSHCAWTIVRVEILRNFYFINRLTGYLRN
As to B1, the “effectiveness, reduction of brain infarct volume” value in test [1] (IFN-a/IFN-b 500 ng/Kg sc, 30 min, 3, 6, 12 h after ischemic event) was 37.0%. The “% of effectiveness (area under the curve of clinical index)” value in test [2] is given as 34.8%. Moreover, in test [3], the “Clinical score (Mean ± SD)” value was 1.4 ± 0.2, the “Days of the disease” value worked out at 7.1 ± 0.3 days, the “Incidence (%)” value is listed as 70% and the “Starting day (Mean ± DS)” value is 12.6 ± 0.5.
